# In PubChem BioAssay AID2528 (National Center for Advancing Translational Sciences (NCATS), 2010):
# Sequences of proteins named here, by UniProt entry; tags and fusion partners are left off.
# UniProt P54132, whole entry: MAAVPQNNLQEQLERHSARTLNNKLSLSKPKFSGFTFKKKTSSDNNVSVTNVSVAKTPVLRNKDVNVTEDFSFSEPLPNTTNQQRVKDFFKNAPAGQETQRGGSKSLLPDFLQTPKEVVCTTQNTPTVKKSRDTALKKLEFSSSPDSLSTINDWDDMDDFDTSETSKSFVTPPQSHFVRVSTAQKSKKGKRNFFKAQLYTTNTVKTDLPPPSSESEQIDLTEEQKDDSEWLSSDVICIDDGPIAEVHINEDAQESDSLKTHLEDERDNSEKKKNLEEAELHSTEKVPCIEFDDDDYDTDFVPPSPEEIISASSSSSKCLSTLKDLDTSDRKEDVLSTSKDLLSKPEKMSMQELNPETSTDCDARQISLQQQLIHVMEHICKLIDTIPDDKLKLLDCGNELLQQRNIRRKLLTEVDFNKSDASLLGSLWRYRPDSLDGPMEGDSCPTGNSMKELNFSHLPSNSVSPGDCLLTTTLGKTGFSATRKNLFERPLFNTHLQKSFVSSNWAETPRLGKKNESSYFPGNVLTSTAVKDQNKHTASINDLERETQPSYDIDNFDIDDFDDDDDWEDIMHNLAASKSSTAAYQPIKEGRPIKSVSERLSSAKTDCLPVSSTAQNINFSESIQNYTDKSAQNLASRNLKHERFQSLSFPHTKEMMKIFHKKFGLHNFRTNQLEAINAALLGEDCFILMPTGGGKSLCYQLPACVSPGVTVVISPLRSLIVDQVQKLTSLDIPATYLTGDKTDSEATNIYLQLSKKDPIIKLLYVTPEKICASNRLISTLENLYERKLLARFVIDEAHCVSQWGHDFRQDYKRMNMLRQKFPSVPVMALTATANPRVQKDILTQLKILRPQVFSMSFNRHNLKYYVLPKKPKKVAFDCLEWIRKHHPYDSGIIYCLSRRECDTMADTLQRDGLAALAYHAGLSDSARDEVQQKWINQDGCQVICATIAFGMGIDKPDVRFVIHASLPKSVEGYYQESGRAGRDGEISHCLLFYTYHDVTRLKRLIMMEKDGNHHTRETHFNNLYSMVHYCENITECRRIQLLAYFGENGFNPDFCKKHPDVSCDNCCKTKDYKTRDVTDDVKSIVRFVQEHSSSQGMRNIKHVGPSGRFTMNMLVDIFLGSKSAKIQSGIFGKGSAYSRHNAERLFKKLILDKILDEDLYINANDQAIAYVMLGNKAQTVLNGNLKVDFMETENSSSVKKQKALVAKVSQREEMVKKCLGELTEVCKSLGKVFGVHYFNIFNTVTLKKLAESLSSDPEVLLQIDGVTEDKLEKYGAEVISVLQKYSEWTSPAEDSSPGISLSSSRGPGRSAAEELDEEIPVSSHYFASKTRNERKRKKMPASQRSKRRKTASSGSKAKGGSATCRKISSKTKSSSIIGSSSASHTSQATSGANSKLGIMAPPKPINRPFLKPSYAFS
# This is a selection; strong and weak results do not stand in their true shares. Active and inactive are the calls of the source. Calls come from the whole dose curve; as a rule, active = well fitted inhibition curve with a large enough effect; inconclusive = small, poorly fitted or top-dose-only effect; inactive = flat fitted curve, though single readings scatter.
# Target: RecQ-like DNA helicase BLM (Homo sapiens) (UniProt P54132)
# Assay: qHTS Assay for Inhibitors of Bloom's syndrome helicase (BLM);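 note: plate controls were vehicle for no effect and no enzyme for full effect; nearly all actives have a fitted effect of over 35% in size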
# Settings: recombinant BLM DNA unwinding, fluorescence dequenching; at 56.1 µM (top of the series) unless noted
row,SMILES,"activity change, negative = inhibition"
1,CC(C)OP(=O)(F)OC(C)C,inactive: 0.856%
2,C/C1=C2N=C(/C=C3N=C(/C(C)=C4\[N-][C@@](C)([C@H]5N=C1[C@@](C)(CCC(=O)NC[C@H](C)OP(=O)([O-])O[C@@H]1[C@H](O)[C@H](n6cnc7cc(C)c(C)cc76)O[C@@H]1CO)[C@@H]5CC(N)=O)[C@](C)(CC(N)=O)[C@H]4CCC(N)=O)[C@@](C)(CC(N)=O)[C@@H]\3CCC(N)=O)C(C)(C)[C@@H]/2CCC(N)=O.[C-]#N.[Co+3],inactive: -7.6% [at 21.4 µM]
3,CCOC(=O)c1ccc(NP(C)(=O)Oc2ccc(Cl)cc2)cc1 (stereo not given),inactive: -3.31%
4,CP(=O)(OC12CC3CC(CC(C3)C1)C2)OC12CC3CC(CC(C3)C1)C2,inactive: -1.76%
5,CC(C)(C)c1ccc(OP(C)(=O)O)cc1,inactive: -1.55%
6,COc1ccccc1OP(C)(=O)Nc1ccccc1Br (stereo not given),inactive: -2.44%
7,CP(=O)(Nc1ccc(Cl)cc1)Oc1ccc(F)cc1 (stereo not given),inactive: -2.46%
8,CN(C)C(=O)c1c([N+](=O)[O-])cc([N+](=O)[O-])cc1[N+](=O)[O-],inactive: -4.98%
9,COc1ccc(OP(C)(=O)Nc2ccc(Br)cc2)cc1 (stereo not given),inactive: -1.72%
10,CCN(CC)CC(O)COC(=O)C(O)(c1ccccc1)C1CCCCC1 (stereo not given),inactive: 2.84%
11,OCCSCCO,inactive: -7.32%
12,O=C(OCCCN1CCCC1)C(O)(c1ccccc1)C1CCCCC1 (stereo not given),inactive: 2.45%
13,COc1ccccc1OP(C)(=O)Nc1c(C)n(C)n(-c2ccccc2)c1=O (stereo not given),inactive: -1.23%
14,CCc1ccc(OP(C)(=O)Nc2cccnc2)cc1 (stereo not given),inactive: 1.27%
15,CP(=O)(Oc1ccccc1)N1CCOC1=O (stereo not given),inactive: -0.242%
16,O=[N+]([O-])c1cc([N+](=O)[O-])c(Nc2ccccn2)c([N+](=O)[O-])c1,inactive: 4.08%
17,Cc1c(NP(C)(=O)Oc2ccc(C(C)C)cc2)c(=O)n(-c2ccccc2)n1C (stereo not given),inactive: -1.26%
18,COc1ccccc1OP(C)(=O)Nc1ccc(C)cc1C (stereo not given),inactive: 0.557%
19,CP(=O)(Nc1ccccn1)Oc1ccccc1 (stereo not given),inactive: 1.03%
20,CCc1ccc(OP(C)(=O)O)cc1,inactive: -0.0184%

row,SMILES,"activity change, negative = inhibition"
1,COc1ccccc1OP(C)(=O)Nc1ccc(Br)cc1 (stereo not given),inactive: -2.98%
2,COc1ccc(OP(C)(=O)Nc2ccccn2)cc1 (stereo not given),inactive: -3.92%
3,CN(C)CCOC(=O)C(O)(c1ccccc1)C1CCCC1 (stereo not given),inactive: 1.86%
4,Cc1nc2ccc3ccccc3c2o1.O=[N+]([O-])c1cc([N+](=O)[O-])c(O)c([N+](=O)[O-])c1,inactive: -24.1%
5,CP(=O)(OCCOc1ccccc1)OCCOc1ccccc1,inactive: -5.48%
6,CP(=O)(Nc1ccc(Cl)cc1Cl)Oc1ccccc1 (stereo not given),inactive: -1.9%
7,Cc1cc(C)cc(OP(C)(=O)Nc2cccc(C(F)(F)F)c2)c1 (stereo not given),inactive: -12.5%
8,COc1ccccc1OP(C)(=O)Nc1ccc(C)c(C)c1 (stereo not given),inactive: -4.75%
9,COc1ccc(OP(C)(=O)Nc2ccccc2Br)cc1 (stereo not given),inactive: -1.85%
10,CCN(CC)CCCOC(=O)C(O)(c1ccccc1)C1CCCCC1 (stereo not given),inactive: 1.53%
11,CP(=O)(Nc1ccccc1)Oc1ccc(F)cc1 (stereo not given),inactive: -0.764%
12,CCCCCOc1ccc(NP(C)(=O)Oc2ccc(Cl)cc2Cl)cc1 (stereo not given),inactive: -15.4%
13,CCOC(=O)c1ccc(NP(C)(=O)Oc2ccc(F)cc2)cc1 (stereo not given),inactive: 2.15%
14,COc1ccc(OP(C)(=O)Nc2ccc(SC(F)(F)F)cc2)cc1 (stereo not given),inactive: -7.65%
15,O=C(OCCN1CCN(CCOCc2ccccc2)CC1)C(O)(c1ccccc1)c1ccccc1,inactive: -1.53%
16,CP(=O)(Nc1ccccc1F)Oc1ccccc1 (stereo not given),inactive: -11.8%
17,CC(C)c1ccc(OP(C)(=O)Nc2ccc(SC(F)(F)F)cc2)cc1 (stereo not given),inactive: -17.8%
18,CP(=O)(Nc1ccc2c(c1)OCCO2)Oc1ccccc1 (stereo not given),inactive: -0.504%
19,CCN(CCCl)Cc1ccccc1C,inactive: 5.31%
20,Cc1ccccc1NP(C)(=O)Nc1ccccc1C,inactive: -0.939%

row,SMILES,"activity change, negative = inhibition"
1,CP(=O)(Nc1ccc(SC(F)(F)F)cc1)Oc1ccc(F)cc1 (stereo not given),inactive: -3.68%
2,CCOP(C)(=S)SCC(=O)NC(C)(CC)C(=O)O (stereo not given),inactive: 4.32%
3,O=[N+]([O-])c1ccc(OP2(=O)COCCO2)cc1 (stereo not given),inactive: 1.42%
4,Cc1cc(-c2cccc3ccccc23)c(C)cn1.O=[N+]([O-])c1cc([N+](=O)[O-])c(O)c([N+](=O)[O-])c1,inactive: -4.81%
5,COc1ccc(OP(C)(=O)Nc2cccc(Br)c2)cc1 (stereo not given),inactive: -0.829%
6,CN(C)CCOC(=O)C(O)(c1ccccc1)C1CCCCC1 (stereo not given),inactive: 3.9%
7,COc1ccc(NP(C)(=O)Oc2ccccc2OC)cc1 (stereo not given),inactive: -1%
8,COc1ccccc1OP(C)(=O)Nc1c(C)cccc1C (stereo not given),inactive: -1.44%
9,CN1CCCCC1COC(=O)C1(O)c2ccccc2CCc2ccccc21 (stereo not given),inactive: -10.6%
10,CP(=O)(Nc1ccc(SC(F)(F)F)cc1)Oc1ccccc1 (stereo not given),inactive: -4.23%
11,CCCOc1ccc(NP(C)(=O)Oc2ccc(Cl)cc2)cc1 (stereo not given),inactive: -3.17%
12,O=[N+]([O-])c1cc([N+](=O)[O-])c(Nc2nnnn2CCO)c([N+](=O)[O-])c1,inactive: -3.76%
13,Cc1nc2ccc3ccccc3c2s1.O=[N+]([O-])c1cc([N+](=O)[O-])c(O)c([N+](=O)[O-])c1,inactive: 1.6%
14,O=[N+]([O-])c1cc([N+](=O)[O-])c(-n2nnc3ccccc32)c([N+](=O)[O-])c1,inactive: -1.05%
15,CC(C)N(CCCl)C(C)C,inactive: 1.44%
16,Cc1ccc(C)c(NP(C)(=O)Oc2ccccc2)c1 (stereo not given),inactive: 1.27%
17,CP(=O)(Nc1cccc(Br)c1)Oc1ccccc1 (stereo not given),inactive: -0.148%
18,Cc1cc(C)cc(OP(C)(=O)Nc2ccccn2)c1 (stereo not given),inactive: -1.47%
19,COc1ccccc1OP(C)(=O)Nc1cccc(Br)c1 (stereo not given),inactive: -1.47%
20,CCOC(=O)c1ccc(NP(C)(=O)Oc2cc(C)cc(C)c2)cc1 (stereo not given),inactive: -5.44%
